The values below are quoted from earlier work in patent US20100284984A1, “ADENOSINE AND ITS MIMETICS. MODULATORS, TRANSPORT INHIBITORS, AND RECEPTOR AGONISTS AS A THERAPEUTIC TOOL TO REPLACE OR IMPROVE THE EFFICACY OF DEEP BRAIN STIMULATION” (University of Rochester, priority 2007, published 2010).

The chains behind the UniProt entries cited, without tags or fusion partners.
UniProt P55263, whole entry: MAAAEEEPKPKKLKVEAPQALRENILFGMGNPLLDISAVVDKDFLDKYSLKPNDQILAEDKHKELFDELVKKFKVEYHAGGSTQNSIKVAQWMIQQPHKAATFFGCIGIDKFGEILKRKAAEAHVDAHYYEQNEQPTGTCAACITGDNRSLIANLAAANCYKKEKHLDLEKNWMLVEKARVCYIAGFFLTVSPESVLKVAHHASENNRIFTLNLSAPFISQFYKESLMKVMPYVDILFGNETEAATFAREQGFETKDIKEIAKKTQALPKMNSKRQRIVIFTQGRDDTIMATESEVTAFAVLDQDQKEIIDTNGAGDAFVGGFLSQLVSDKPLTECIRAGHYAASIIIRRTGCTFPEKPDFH

The structures appear in SMILES notation.

For orientation: IC50 means the midpoint of a concentration-inhibition curve.

The target in the series is adenosine kinase (Homo sapiens, UniProt P55263). The note with it: cited from earlier work.

In the case of `NC[C@H]1O[C@@H](n2nc(Br)c3c(N)ncnc32)[C@H](O)[C@@H]1O`, the half-inhibitory concentration (IC50) was 206 nM.
